Reference: patent US9133148B2, “Carbamate compounds and of making and using same” (Abide Therapeutics, Inc., priority 2012, dated 2015)

Sequences of proteins named here, by UniProt entry; tags and fusion partners are left off.
UniProt O35678, whole entry: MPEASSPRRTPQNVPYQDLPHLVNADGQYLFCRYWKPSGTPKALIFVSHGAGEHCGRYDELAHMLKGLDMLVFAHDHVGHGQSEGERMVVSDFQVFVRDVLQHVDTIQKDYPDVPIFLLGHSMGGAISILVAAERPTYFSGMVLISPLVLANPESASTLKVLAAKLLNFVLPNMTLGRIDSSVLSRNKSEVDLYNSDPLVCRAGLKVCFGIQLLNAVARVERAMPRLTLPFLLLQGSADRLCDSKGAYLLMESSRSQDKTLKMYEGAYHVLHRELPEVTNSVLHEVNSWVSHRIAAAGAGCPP

Molecular target: Mouse brain MAGL (Mus musculus (Mouse), UniProt O35678)
Test: Mouse brain proteomes from inhibitor treated mice (oral gavage, ABPP of brain MAGL)
Type: in vivo
Conditions: 4 h following administration
Protocol: Preparation of Mouse Brain Proteomes from Inhibitor Treated Mice.
Inhibitors were administered to wild-type C57Bl/6J by oral gavage in a vehicle of polyethylene glycol.

In the case of `O=C(OC(C(F)(F)F)C(F)(F)F)N1CCN(Cc2ccc(Br)cc2Oc2ccccc2)CC1` [Example 9b, 1,1,1,3,3,3-hexafluoropropan-2-yl 4-(4-bromo-2-phenoxybenzyl)piperazine-1-carboxylate], the “Mouse brain MAGL (% inhibition at 20 mg/kg, p.o.)” value is reported as over 95%.
